The source of these data is ChEMBL document CHEMBL4334481, “First Nondiscriminating Translocator Protein Ligands Produced from a Carbazole Scaffold” (J Med Chem, 2019).

Amino acid sequences for entries named in this document (tags omitted).
UniProt P30536, whole entry: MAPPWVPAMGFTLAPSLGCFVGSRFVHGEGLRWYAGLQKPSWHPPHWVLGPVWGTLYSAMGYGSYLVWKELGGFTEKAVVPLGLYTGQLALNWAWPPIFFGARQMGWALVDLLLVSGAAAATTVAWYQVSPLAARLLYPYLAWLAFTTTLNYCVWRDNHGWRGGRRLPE

pKi: −log10 of the molar value.

By pKi is commonly meant −log10 of the Ki, conventionally taken in molar units. The low end stands for a large Ki, the high end for a small Ki.

Test [1] addresses T1, Translocator protein (Homo sapiens, UniProt P30536). As to the kind of experiment: Displacement of [3H]PK11195 from wild-type human TSPO expressed in HEK293 cell membranes after 90 mins by scintillation counting method. The procedure, abridged: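 Membranes from stably transfected HEK293 cells (PBS/0.04% EDTA detachment, homogenised in Tris-HCl, washed by 48000 g spins), 20 µg protein/well for WT or 10 µg/well for A147T, incubated with 10 nM [3H]PK 11195 and competitor at log-spaced 3.1 nM–10 µM, 90 min, 4 °C.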
Background: In a radioligand displacement assay an active substance lowers the binding of a labelled ligand.

The target of test [2] is T1, Translocator protein. Put plainly: Displacement of [3H]PK11195 from wild-type human TSPO expressed in HEK293 cells after 90 mins by scintillation counting method. The format is cell-based. The procedure, abridged: (§1)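 Intact stably transfected HEK293 cells detached with PBS/0.04% EDTA (5 min, 37 °C), resuspended in 50 mM Tris-HCl; 1x10^6 cells incubated with competitor and 10 nM [3H]PK 11195, otherwise as membrane assay (90 min, 4 °C, 1 µM PK 11195 nonspecific, filtration, scintillation).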

The target of test [3] is T1, Translocator protein. Put plainly: Displacement of [3H]PK11195 from human TSPO A147T mutant expressed in HEK293 cells after 90 mins by scintillation counting method. The format is cell-based. An outline of the steps:
as §1

On to `CC[C@@H](C)N(C)C(=O)c1cc2ccccc2c(-c2ccccc2Cl)n1` [(R)PK-11195], for which the negative-log Ki (pKi) on Translocator protein [1] is 7.65; on Translocator protein [2], 7.87; on Translocator protein [3] it was 7.50.
